Values quoted from earlier work, collected in patent publication US20090069429A1, “Compositions Comprising Alpha-Ketoglutarate and Their Use for Modulating Muscle Performance” (SGP & SONS AB, priority 2006, published 2009).

Settings: stated as previously shown; cited from earlier work

O=C(O)CCC(=O)C(=O)O [AKG, alpha-ketoglutarate]
phosphate levels in plasma: reduce phosphate levels in plasma
